PubChem BioAssay AID1224905 (ICCB-Longwood Screening Facility, Harvard Medical School, 2016)
Out of some 210,000 compounds screened, about 880 (0.42%) were called active. Many of the other results were omitted from the sample, so actives are more common in it than they were. Values without a mark were called inactive.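 Rule for the calls: active = replicate mean at 85% of control or lower with very high polarization wells dropped (limit read from the data); inactive = the rest.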

Sequences of proteins named here, by UniProt entry; tags and fusion partners are left off.
UniProt P08753, whole entry, looked up: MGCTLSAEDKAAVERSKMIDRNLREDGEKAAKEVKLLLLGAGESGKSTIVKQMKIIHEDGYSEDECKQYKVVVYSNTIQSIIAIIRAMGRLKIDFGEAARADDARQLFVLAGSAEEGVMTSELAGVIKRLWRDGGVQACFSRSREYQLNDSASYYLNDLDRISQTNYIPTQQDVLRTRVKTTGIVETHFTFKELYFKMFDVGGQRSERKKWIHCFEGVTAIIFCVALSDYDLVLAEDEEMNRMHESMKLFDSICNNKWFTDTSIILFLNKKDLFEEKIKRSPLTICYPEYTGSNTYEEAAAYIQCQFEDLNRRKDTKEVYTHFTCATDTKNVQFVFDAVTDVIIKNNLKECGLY

Each compound was assayed against Guanine nucleotide-binding protein G(i) subunit alpha-3 (Rattus norvegicus) (UniProt P08753) (assay: disruptors of GIV-Galphai3 protein-protein interaction – biochemical, fluorescence polarization, FITC-GIV GBA peptide, rat Galphai3, primary screen (AID 1224905)). Conditions: Galpha-i3/FITC-GIV peptide fluorescence polarization, 90 min; active compounds read low; scaled: aluminum fluoride 0%, vehicle 100%.

Row | Compound | percent of control (FP)
1 | Cn1nc(-c2ccccc2F)c2cc(C(=O)Oc3ccc4cnccc4c3)sc21 | 109%
2 | N#CC1=C2Sc3ccccc3N2CC1=O | -54.5% (active)
3 | CCOC(=O)c1[nH]c(=O)[nH]c1CSc1nnc(SCc2[nH]c(=O)[nH]c2C(=O)OCC)s1 | 118%
4 | N#CSc1cc(SC#N)c(N)nc1N | 16% (active)
5 | COc1cccc(N/C(SCc2ccccc2C)=C(/C#N)C(=O)NCCc2ccc(OC)c(OC)c2)c1 | 104%
6 | CCC(C)OC(=O)C1=C(C)NC(=O)NC1c1ccc(OC)c(OCc2ccccc2)c1 (stereo not given) | 99.4%
7 | COc1cc(C=C2C(=O)NC(=O)NC2=O)cc(Cl)c1OCCOc1ccc(C)cc1 | 103%
8 | CCOC(=O)c1ccc(N2N=C(C(F)(F)F)/C(=C/c3cc(Cl)c(O)c(OC)c3)C2=O)cc1 | 109%
9 | CCOc1cc(/C=C2/C(=O)N(c3nn[nH]n3)N=C2C)cc(Cl)c1OCC | 74.3% (active)
10 | O=C(C1CCN(c2nc(-c3ccc(Cl)cc3)no2)CC1)N1CCC(N2CCCCC2)CC1 | 104%
11 | CCSCCOC(=O)C1=C(C)N(C)C(=O)NC1c1ccccc1OCc1ccccc1 (stereo not given) | 104%
12 | c1csc(Nc2nc3cc4c(cc3s2)OCO4)n1 | -40.2% (active)
13 | c1c2c(cc3sc(N4CCCCC4)nc13)OCCO2 | 101%
14 | CC(=O)N(CCN(C)C)c1nc2cc3c(cc2s1)OCO3 | 100%
15 | O=C(CCn1nnc2cc(S(=O)(=O)N3CCCC3)ccc21)N1CCN(c2ccccn2)CC1 | 112%
16 | Cc1c(CNCCc2ccc(S(N)(=O)=O)cc2)c(C(=O)O)c(C)n1Cc1ccc(F)cc1 | 98.6%
17 | CC1(C)C2CCC1(CS(=O)(=O)Nc1cc(C(=O)N3CCOCC3)ccc1N1CC3CC(C1)c1cccc(=O)n1C3)C(=O)C2 (stereo not given) | 106%
18 | O=C(O)c1cc(N2C(=O)C3C4C=CC(CO)(O4)C3C2=O)ccc1Cl (stereo not given) | 103%
19 | CCN(CC)c1ccc2cc(C(=O)NC(C)=O)c(=Nc3ccccc3OC)oc2c1 | 114%
20 | CCN(CC)c1ccc2cc(C(=O)NC(C)=O)c(=Nc3ccc(F)cc3F)oc2c1 | 117%
21 | CCN(CC)c1ccc2cc(C(N)=O)/c(=N\NC(=O)c3ccccc3)oc2c1 | -46.7% (active)
22 | O=S(=O)(NCc1ccco1)c1ccc(Cl)cc1 | 101%
23 | Cc1ccc2ccc3cc(C(=O)NC4CCCC4)nc3c2[nH]1 | 112%
24 | O=C1/C(=C/c2ccc([N+](=O)[O-])cc2)C=C(c2ccccc2)N1c1cccc(Cl)c1Cl | 109%

Row | Compound | percent of control (FP)
25 | O=C1/C(=C/c2ccc(Br)cc2)C=C(c2ccccc2)N1c1ccccc1Br | 119%
26 | COc1ccccc1N1C(=O)/C(=C/c2ccc(Cl)cc2)C=C1c1ccccc1 | 78.1% (active)
27 | CC(C)NC(=O)C1=CC(c2ccco2)=NS(=O)(=O)N1C | 107%
28 | Cc1[nH]c(C(=O)Nc2ccc(F)cc2)c(C)c1S(=O)(=O)N1CCCC1 | 112%
29 | Cc1cc(C)nc(NS(=O)(=O)c2ccc(NC(=O)C(C)Oc3ccc(Cl)cc3Cl)cc2)n1 (stereo not given) | 111%
30 | CC1=NOC(=O)C1C(c1cccc(Br)c1)c1c(C)[nH]n(-c2ccccc2)c1=O (stereo not given) | 48.2% (active)
31 | Cc1[nH]n(-c2ccccc2)c(=O)c1C(c1ccc(C(F)(F)F)cc1)c1c(C)[nH]n(-c2ccccc2)c1=O | 92.3%
32 | COc1ccc(C(=O)Oc2ccc(C(c3c(C)[nH]n(-c4ccccc4)c3=O)c3c(C)[nH]n(-c4ccccc4)c3=O)cc2)cc1 | 111%
33 | O=C(CSc1nnc2ccc(C(=O)NCc3ccccc3)cn12)Nc1ccccc1Br | 95.4%
34 | CC(=O)Nc1cccc(NC(=O)c2sc3ncn(CC(=O)Nc4ccc(C)c(Cl)c4)c(=O)c3c2C)c1 | 107%
35 | CC1(C)CC(=O)C2=C(C1)OC1=C(C(=O)CC(C)(C)C1)C2c1ccc(Cl)cc1 | 107%
36 | Cn1cc(S(=O)(=O)N2CCCCC2)cc1C(=O)N1CCc2ccccc2C1 | 107%
37 | COC(=O)c1ccc(C2C(S(=O)(=O)c3ccccc3)=C(O)C(=O)N2c2cccc(C)c2)cc1 (stereo not given) | 101%
38 | CCCCN1C(=O)C(C)(C(=O)N2CCN(C)CC2)Oc2cccnc21 (stereo not given) | 101%
39 | O=C(CCN1CCOCC1)Nc1cc(C(=O)Nc2ccc(F)c(F)c2)ccc1N1CC2CC(C1)c1cccc(=O)n1C2 (stereo not given) | 115%
40 | O=C(O)c1c2ccccc2[nH]c2c1oc1cc(=O)ccc12 | 81.8% (active)
41 | CCCCN(C)C(=O)CCn1c(=S)[nH]c2c(oc3ccccc32)c1=O | 100%
42 | COC(=O)c1c(C)c(=O)[nH]c2ccccc12 | 102%
43 | CCn1cc(CCN2CCN(S(=O)(=O)c3ccc4c(c3)CCC4)CC2)c2cccnc21 | 108%
44 | CCN(Cc1ccccc1)C(=O)Cn1c(=O)n(CCc2ccccc2)c(=O)c2ccccc21 | 102%
45 | O=S(=O)(c1cc(-c2noc(C3CC3)n2)cs1)N1CCN(c2ccc(Cl)cc2)CC1 | 104%
46 | CCOc1ccc(NC(=O)Nc2ccc(Cn3cnc(-c4nc(-c5ccc(Cl)cc5)no4)c3)cc2)cc1 | 102%
47 | COC(=O)Cn1nc2c(-c3nc(-c4ccc(Cl)cc4)no3)cccn2c1=O | 53.6% (active)
48 | C=CCNc1ncccc1-c1nc(-c2ccc(Cl)cc2)no1 | 96.7%

Row | Compound | percent of control (FP)
49 | CCCCN(CC)C(=O)c1c[nH]c2ccc(S(=O)(=O)N(C)c3ccc(Br)cc3)cc2c1=O | 97.2%
50 | O=C1Nc2ccccc2O/C1=C\c1ccc(C(=O)NCc2ccco2)cc1 | 103%
51 | CCOc1ccc(NC(=O)Nc2cccc(OCc3cc(=O)n4ccccc4n3)c2)cc1 | 100%
52 | O=c1c(-c2cc3ccccc3o2)[n+]([O-])c2ccccc2n1O | 9.86% (active)
53 | COc1ccc2oc(=O)cc(-c3cc4ccccc4o3)c2c1 | 104%
54 | Cn1c(SCC(N)=O)nnc1-c1cc2ccccc2o1 | 98.6%
55 | Cc1ccc([N+](=O)[O-])cc1S(=O)(=O)n1c(SCc2ccccc2F)nc2ccccc21 | 104%
56 | COc1ccc(-c2ocnc2C(=O)O)cc1 | 108%
57 | COc1cccc(N=Nc2c(O)[nH]c(=O)[nH]c2=O)c1 | 100%
58 | COc1ccc(N=Nc2c(-c3ccc(OC)cc3)[nH]oc2=O)cc1 | 49% (active)
59 | Cc1ccc(-c2nnc3ccccc3c2C(=O)Nc2ccc3c(c2)OCCO3)cc1 | 101%
60 | COC(=O)/C=C1\Nc2ccccc2SC1=O | 103%
61 | O=C1c2ccccc2S(=O)(=O)N1CC(O)COc1ccc2ccccc2c1 (stereo not given) | 103%
62 | C/C(=N\c1nc2ccccc2n1C)c1cc(Cl)ccc1O | 49.3% (active)
63 | Cn1c(=O)c(C(=O)NCCc2ccc(Cl)cc2)nc2ccccc21 | 105%
64 | Cn1c(NC(=O)c2ccccc2)nc2ccccc21 | 97.8%
65 | Cn1cc(C(=O)Nc2ccc(Br)cc2)c2[nH]c(=O)n(-c3ccccc3)c(=O)c21 | 101%
66 | COc1ccc(NC(=O)c2nn(C)c3c2CSc2ccc(Cl)cc2-3)cc1OC | 102%
67 | COc1ccc(NC(=O)C2CCN(S(=O)(=O)c3cc4c(cc3C)NC(=O)CO4)CC2)cc1OC | 98%
68 | O=S(=O)(c1ccccc1Cl)N1CCN(c2ncnc3c2nnn3-c2ccc(F)cc2)CC1 | 98.7%
69 | Cc1cc(C)c2c(N)c(-c3n[nH]c(=S)n3C)sc2n1 | -53.5% (active)
70 | Cc1cc(C)c2c(n1)sc1c(=O)n(C)cnc12 | 103%
71 | COc1ccc(-c2cc(-c3nc4c5sc6nc(C)cc(C)c6c5ncn4n3)[nH]n2)cc1 | 102%
72 | Cc1ccc(N2C(=O)C3C4c5ccccc5C(C=O)(c5ccccc54)C3C2=O)c(Br)c1 (stereo not given) | 123%

Row | Compound | percent of control (FP)
73 | COCCNC(=O)c1ccccc1NC(=O)c1ccc(F)cc1 | 104%
74 | COC(=O)CN1C(c2ccccc2)=Nc2ccc(Br)cc2C1c1ccccc1 (stereo not given) | 107%
75 | COc1ccc(CNS(=O)(=O)c2ccc(F)c(C(=O)Nc3ccc(Br)cc3F)c2)cc1 | 111%
76 | O=C(NCCc1c[nH]c2ccccc12)c1cc(=O)nc2sc(N3CCCC3)nn12 | 106%
77 | Cc1nn(CC(=O)NCCc2c[nH]c3ccccc23)c(=O)c2noc(C)c12 | 98.7%
78 | N#C/C(=C/c1ccc(N2CCCCC2)o1)C(=O)NCCc1c[nH]c2ccccc12 | -90.3% (active)
79 | CCCCN(CC)c1ncnc2ccc(C)cc12 | 101%
80 | Cc1ccc2nc(/C(C#N)=C/c3ccc(-c4ccc(C(=O)OC(C)C)cc4)o3)[nH]c2c1 | -57.6% (active)
81 | N#CC(C#N)=Cc1ccc(-c2cccc(C(=O)O)c2)o1 | 102%
82 | Cc1ccc2nc(/C(C#N)=C/c3ccccc3F)[nH]c2c1 | 113%
83 | O=C(OCCN1CCCCC1)C1COc2ccccc2O1 (stereo not given) | 102%
84 | CN(Cc1ccccc1)S(=O)(=O)c1ccc2c3c(cccc13)C(=O)N2 | 104%
85 | Nc1ccc2c3c(cccc13)C(=O)NC2=O | -7.99% (active)
86 | CC1CN(S(=O)(=O)c2ccc3c4c(cccc24)C(=O)N3)CC(C)O1 (stereo not given) | 96.8%
87 | C#CCSc1c(CCCC)cnc2c1c(=O)n(C)c(=O)n2C | 106%
88 | COC(CNC(=O)c1cn(C)c2ccc(S(=O)(=O)N3CCCC3)cc2c1=O)OC | 106%
89 | CCOc1ccc(/C(O)=C2/C(=O)C(=O)N(CCN3CCOCC3)C23C(=O)N(C)c2ccccc23)cc1 (stereo not given) | 107%
90 | Cc1cc(Br)ccc1NC(=O)Cn1c2ccccc2c(=O)c2ccccc21 | 99.8%
91 | CCN1C(=O)c2cccc3c(NC(=S)NC(=O)c4ccccc4)ccc1c23 | -23.8% (active)
92 | CCN1C(=O)c2cccc3c(S(=O)(=O)N4CCc5ccccc54)ccc1c23 | 101%
93 | CCN1C(=O)c2cccc3c(S(=O)(=O)N4CCN(CCO)CC4)ccc1c23 | 108%
94 | Cc1cc(C)n(C(=O)c2sccc2S(=O)(=O)N(C)c2ccc(C)c(Cl)c2)n1 | 95.4%
95 | O=C(NCC(c1ccccc1Cl)N1CCCC1)c1cc(-c2ccccc2)on1 (stereo not given) | 113%
